# Reference: publication PMC11406361, “Several orphan solute carriers functionally identified as organic cation transporters: Substrates specificity compared with known cation transporters” (The Journal of Biological Chemistry, 2024)
# Protein sequences, listed by entry. Tags and fused reporters are not part of them. Lines headed by an entry give the natural chain unless they say otherwise; changes in a name come on top.
# UniProt Q8N808: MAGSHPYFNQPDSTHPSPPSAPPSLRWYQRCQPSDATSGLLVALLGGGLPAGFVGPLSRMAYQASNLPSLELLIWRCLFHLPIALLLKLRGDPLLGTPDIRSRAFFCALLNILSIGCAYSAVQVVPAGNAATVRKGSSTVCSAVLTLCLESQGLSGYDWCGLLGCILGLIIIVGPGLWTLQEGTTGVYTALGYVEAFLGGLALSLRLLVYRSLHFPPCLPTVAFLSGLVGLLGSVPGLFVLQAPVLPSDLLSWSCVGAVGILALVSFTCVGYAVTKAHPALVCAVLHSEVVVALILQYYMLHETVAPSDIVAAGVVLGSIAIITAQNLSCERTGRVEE
# Target: SLC35G3 (Homo sapiens, UniProt Q8N808)
# Experiment: Uptake ratio screen, SLC35G3-overexpressing HEK293 over empty vector cells
# Format: cell-based
# Set-up: by amplifying the entire gene-of-interest within the HEK293 genome via a long-range PCR
smiles,measurement,value
CNCCC(Oc1ccc(C(F)(F)F)cc1)c1ccccc1 (stereo not shown) [Fluoxetine],"Uptake data for SLC35G3, mean value (fold-increase over empty vector control)",1.37
